Data taken from US9694016B2 (Novartis AG, priority 2013, dated 2017).

Amino acid sequences for entries named in this document (tags omitted).
UniProt P04049, whole entry Y340E/Y341E: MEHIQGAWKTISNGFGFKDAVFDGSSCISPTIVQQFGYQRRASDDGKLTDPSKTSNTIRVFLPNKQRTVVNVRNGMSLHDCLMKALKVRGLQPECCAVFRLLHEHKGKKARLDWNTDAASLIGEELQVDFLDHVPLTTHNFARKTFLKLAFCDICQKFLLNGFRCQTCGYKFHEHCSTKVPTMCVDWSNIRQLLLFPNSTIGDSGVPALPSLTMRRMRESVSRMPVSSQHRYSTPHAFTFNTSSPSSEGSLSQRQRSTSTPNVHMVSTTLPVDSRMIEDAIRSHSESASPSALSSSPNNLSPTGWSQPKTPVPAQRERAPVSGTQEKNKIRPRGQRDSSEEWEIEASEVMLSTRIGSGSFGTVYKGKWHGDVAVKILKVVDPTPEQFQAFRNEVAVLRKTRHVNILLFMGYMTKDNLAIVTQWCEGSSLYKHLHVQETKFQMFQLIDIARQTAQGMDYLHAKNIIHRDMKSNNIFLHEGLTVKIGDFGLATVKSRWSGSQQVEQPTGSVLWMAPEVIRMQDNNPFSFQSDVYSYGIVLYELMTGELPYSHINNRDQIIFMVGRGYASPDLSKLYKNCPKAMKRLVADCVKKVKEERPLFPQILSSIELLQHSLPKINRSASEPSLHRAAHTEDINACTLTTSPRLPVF

Biological target: C-Raf FL (full-length C-Raf protein, Y340E and Y341E activating mutations) (Homo sapiens (Human), UniProt P04049, Y340E/Y341E)
Type: biochemical
Settings: AlphaScreen, 60 min pre-incubation, 1 hour reaction; read-out: c-Raf FL IC-50

SMILES | IC50
Cc1ccc(NC(=O)c2cccc(C(C)(C)S(C)(=O)=O)c2)cc1-c1cc(N2CCOCC2)n(C)c(=O)c1 [Example 494, N-(4-methyl-3-(1-methyl-6-morpholino-2-oxo-1,2-dihydropyridin-4-yl)phenyl)-3-(2-(methylsulfonyl)propan-2-yl)benzamide] | 3.7 nM
Cc1ccc(NC(=O)c2cnnc(C(F)(F)F)c2)cc1-c1cc(N2CCOCC2)n(C)c(=O)c1 [Example 495, N-(4-methyl-3-(1-methyl-6-morpholino-2-oxo-1,2-dihydropyridin-4-yl)phenyl)-6-(trifluoromethyl)pyridazine-4-carboxamide] | 1 nM
Cc1ccc(NC(=O)c2cnnc(C3CC3)c2)cc1-c1cc(N2CCOCC2)n(C)c(=O)c1 [Example 496, 6-cyclopropyl-N-(4-methyl-3-(1-methyl-6-morpholino-2-oxo-1,2-dihydropyridin-4-yl)phenyl)pyridazine-4-carboxamide] | 0.2 nM
Cc1ccc(NC(=O)c2cc(CN(C)C)cc(C(F)(F)F)c2)cc1-c1cc(N2CCOCC2)n(C)c(=O)c1 [Example 497, 3-((dimethylamino)methyl)-N-(4-methyl-3-(1-methyl-6-morpholino-2-oxo-1,2-dihydropyridin-4-yl)phenyl)-5-(trifluoromethyl)benzamide] | 0.5 nM
Cc1ncc(NC(=O)c2ccnc(C(C)(C)C#N)c2)cc1-c1cc(N2CCOCC2)n(C)c(=O)c1 [Example 499, 2-(2-cyanopropan-2-yl)-N-(1′,2-dimethyl-6′-morpholino-6′-oxo-1′,2′-dihydro-[3,4′-bipyridin]-5-yl)isonicotinamide] | 3.5 nM
Cc1ncc(NC(=O)c2ccnc(C(F)(F)F)c2)cc1-c1cc(N2CCOCC2)n(C)c(=O)c1 [Example 500] | 1.3 nM
Cc1ncc(NC(=O)c2ccnc(C(C)(C)O)c2)cc1-c1cc(N2CCOCC2)n(C)c(=O)c1 [Example 501, N-(1′,2-dimethyl-6′-morpholino-2′-oxo-1′,2′-dihydro-[3,4′-bipyridin]-5-yl)-2-(2-hydroxypropan-2-yl)isonicotinamide] | 8.3 nM
CCn1cc(C(=O)Nc2cnc(C)c(-c3cc(N4CCOCC4)n(C)c(=O)c3)c2)cc(C(F)(F)F)c1=O [Example 502, N-(1′,2-dimethyl-6′-morpholino-2′-oxo-1′,2′-dihydro-[3,4′-bipyridin]-5-yl)-1-ethyl-6-oxo-5-(trifluoromethyl)-1,6-dihydropyridine-3-carboxamide] | 5.4 nM
Cc1ncc(NC(=O)c2ccccc2)cc1-c1cc(N2CCOCC2)n(C)c(=O)c1 [Example 503, N-(1′,2-dimethyl-6′-morpholino-2′-oxo-1′,2′-dihydro-[3,4′-bipyridin]-5-yl)benzamide] | 62.5 nM
Cc1ncc(NC(=O)c2ccnc(S(C)(=O)=O)c2)cc1-c1cc(N2CCOCC2)n(C)c(=O)c1 [Example 504, N-(1′,2-dimethyl-6′-morpholino-2′-oxo-1′,2′-dihydro-[3,4′-bipyridin]-5-yl)-2-(methylsulfonyl)isonicotinamide] | 5.3 nM
Cc1ncc(NC(=O)c2ccnc(C(C)C)c2)cc1-c1cc(N2CCOCC2)n(C)c(=O)c1 [Example 505, N-(1′,2-dimethyl-6′-morpholino-2′-oxo-1′,2′-dihydro-[3,4′-bipyridin]-5-yl)-2-isopropylisonicotinamide] | 1.4 nM
Cc1ncc(NC(=O)c2ccnc(C(C)(C)C)c2)cc1-c1cc(N2CCOCC2)n(C)c(=O)c1 [Example 507, 2-(tert-butyl)-N-(1′,2-dimethyl-6′-morpholino-2′-oxo-1′,2′-dihydro-[3,4′-bipyridin]-5-yl)isonicotinamide] | 4.2 nM
Cc1ncc(NC(=O)c2ccnc(C(F)F)c2)cc1-c1cc(N2CCOCC2)n(C)c(=O)c1 [Example 508, 2-(difluoromethyl)-N-(1′,2-dimethyl-6′-morpholino-2′-oxo-1′,2′-dihydro-[3,4′-bipyridin]-5-yl)isonicotinamide] | 2.7 nM
Cc1ncc(NC(=O)c2cccc(S(C)(=O)=O)c2)cc1-c1cc(N2CCOCC2)n(C)c(=O)c1 [Example 509, N-(1′,2-dimethyl-6′-morpholino-2′-oxo-1′,2′-dihydro-[3,4′-bipyridin]-5-yl)-3-(methylsulfonyl)benzamide] | 3.8 nM
Cc1ncc(NC(=O)c2ccnc(C(C)(F)F)c2)cc1-c1cc(N2CCOCC2)n(C)c(=O)c1 [Example 510, 2-(1,1-difluoroethyl)-N-(1′,2-dimethyl-6′-morpholino-2′-oxo-1′,2′-dihydro-[3,4′-bipyridin]-5-yl)isonicotinamide] | 1.4 nM
Cc1ncc(NC(=O)c2ccnc(C3CC3)c2)cc1-c1cc(N2CCOCC2)n(C)c(=O)c1 [Example 511, 2-cyclopropyl-N-(1′,2-dimethyl-6′-morpholino-2′-oxo-1′,2′-dihydro-[3,4′-bipyridin]-5-yl)isonicotinamide] | 1.3 nM
Cc1ncc(NC(=O)c2cccc(C(C)(C)S(C)(=O)=O)c2)cc1-c1cc(N2CCOCC2)n(C)c(=O)c1 [Example 512, N-(1′,2-dimethyl-6′-morpholino-2′-oxo-1′,2′-dihydro-[3,4′-bipyridin]-5-yl)-3-(2-(methylsulfonyl)propan-2-yl)benzamide] | 15.6 nM

SMILES | IC50
Cn1c(N2CCOCC2)cc(-c2cc(NC(=O)c3ccnc(C(C)(F)F)c3)cnc2Cl)cc1=O [Example 513, N-(2-chloro-1′-methyl-6′-morpholino-2′-oxo-1′,2′-dihydro-[3,4′-bipyridin]-5-yl)-2-(1,1-difluoroethyl)isonicotinamide] | 0.7 nM
Cc1ccc(C(=O)Nc2cccc(C(C)(C)C#N)c2)cc1-c1cc(N2CCOCC2)n(C)c(=O)c1 [Example 515, N-(3-(2-cyanopropan-2-yl)phenyl)-4-methyl-3-(1-methyl-6-morpholino-2-oxo-1,2-dihydropyridin-4-yl)benzamide] | 1.1 nM
Cc1ccc(C(=O)Nc2cccc(C(C)(C)O)c2)cc1-c1cc(N2CCOCC2)n(C)c(=O)c1 [Example 516, N-(3-(2-hydroxypropan-2-yl)phenyl)-4-methyl-3-(1-methyl-6-morpholino-2-oxo-1,2-dihydropyridin-4-yl)benzamide] | 6.5 nM
Cc1ccc(C(=O)Nc2ccccc2)cc1-c1cc(N2CCOCC2)n(C)c(=O)c1 [Example 518, 4-methyl-3-(1-methyl-6-morpholino-2-oxo-1,2-dihydropyridin-4-yl)-N-phenylbenzamide] | 37.1 nM
CCn1c(N2CCOCC2)cc(-c2cc(NC(=O)c3ccnc(C(C)(F)F)c3)ccc2C)cc1=O [Example 519, 2-(1,1-difluoroethyl)-N-(3-(1-ethyl-6-morpholino-2-oxo-1,2-dihydropyridin-4-yl)-4-methylphenyl)isonicotinamide] | 0.1 nM
CCn1c(N2CCOCC2)cc(-c2cc(NC(=O)c3ccnc(C(F)(F)CC)c3)ccc2C)cc1=O [Example 520, 2-(1,1-difluoropropyl)-N-(3-(1-ethyl-6-morpholino-2-oxo-1,2-dihydropyridin-4-yl)-4-methylphenyl)isonicotinamide] | 0.5 nM
CCn1c(N2CCOCC2)cc(-c2cc(NC(=O)c3ccnc(C(C)C)c3)ccc2C)cc1=O [Example 522, N-(3-(1-ethyl-6-morpholino-2-oxo-1,2-dihydropyridin-4-yl)-4-methylphenyl)-2-isopropylisonicotinamide] | 0.6 nM
Cc1ccc(NC(=O)c2ccnc(C(C)(F)F)c2)cc1-c1cc(N2CCOC[C@H]2C)n(C)c(=O)c1 [Example 523, (R)-2-(1,1-difluoroethyl)-N-(4-methyl-3-(1-methyl-6-(3-methylmorpholino)-2-oxo-1,2-dihydropyridin-4-yl)phenyl)isonicotinamide] | 0.8 nM
Cc1ncc(NC(=O)c2ccnc(C(C)(F)F)c2)cc1-c1cc(N2CCOC[C@H]2C)n(C)c(=O)c1 [Example 524, (R)-2-(1,1-difluoroethyl)-N-(1′,2-dimethyl-6′-(3-methylmorpholino)-2′-oxo-1′,2′-dihydro-[3,4′-bipyridin]-5-yl)isonicotinamide] | 13.6 nM
Cc1ccc(NC(=O)c2ccnc(C(C)(F)F)c2)cc1-c1cc(N2CCOC[C@@H]2C)n(C)c(=O)c1 [Example 525, (S)-2-(1,1-difluoroethyl)-N-(4-methyl-3-(1-methyl-6-(3-methylmorpholino)-2-oxo-1,2-dihydropyridin-4-yl)phenyl)isonicotinamide] | 0.7 nM
Cc1ccc(NC(=O)c2ccnc(C(C)(F)F)c2)cc1-c1cc(N2C3CCC2COC3)n(C)c(=O)c1 [Example 527, N-(3-(6-(3-oxa-8-azabicyclo[3.2.1]octan-8-yl)-1-methyl-2-oxo-1,2-dihydropyridin-4-yl)-4-methylphenyl)-2-(1,1-difluoroethyl)isonicotinamide] | 1 nM
Cn1c(N2C3CCC2COC3)cc(-c2cc(NC(=O)c3ccnc(C(C)(F)F)c3)cnc2Cl)cc1=O [Example 528, N-(6′-(3-oxa-8-azabicyclo[3.2.1]octan-8-yl)-2-chloro-1′-methyl-2′-oxo-1′,2′-dihydro-[3,4′-bipyridin]-5-yl)-2-(1,1-difluoroethyl)isonicotinamide] | 4 nM
Cc1ccc(NC(=O)c2ccnc(C(C)(C)C#N)c2)cc1-c1cncc(N2CCOCC2)n1 [Example 531, 2-(2-cyanopropan-2-yl)-N-(4-methyl-3-(6-morpholinopyrazin-2-yl)phenyl)isonicotinamide] | 0.8 nM
Cc1ncc(NC(=O)c2ccnc(C(C)(C)C#N)c2)cc1-c1cncc(N2CCOCC2)n1 [Example 532, 2-(2-cyanopropan-2-yl)-N-(6-methyl-5-(6-morpholinopyrazin-2-yl)pyridin-3-yl)isonicotinamide] | 1.2 nM
Cc1ncc(NC(=O)c2ccnc(C(C)(F)F)c2)cc1-c1cncc(N2CCOCC2)n1 [Example 533, 2-(1,1-difluoroethyl)-N-(6-methyl-5-(6-morpholinopyrazin-2-yl)pyridin-3-yl)isonicotinamide] | 0.6 nM
Cc1ncc(NC(=O)c2ccnc(C(C)(C)F)c2)cc1-c1cncc(N2CCOCC2)n1 [Example 534, 2-(2-fluoropropan-2-yl)-N-(6-methyl-5-(6-morpholinopyrazin-2-yl)pyridin-3-yl)isonicotinamide] | 1.1 nM
